Experimental data from US6979471B1, “Composition comprising pharmaceutical/nutraceutical agent and a bio-enhancer obtained from Glycyrrhiza glabra” (Council of Scientific and Industrial Research, priority 2000, dated 2005).

Assay: Bioavailability test through biological membrane (U-tube, OD in receiving tube)
Settings: A360 nm

Vitamin B-12
OD measured as Absorbance across the membrane in receiving tube (after 1 hr): 0.0250 | OD measured as Absorbance across the membrane in receiving tube (after 2 hr): 0.0556 | OD measured as Absorbance across the membrane in receiving tube (after 3 hr): 0.0714 | OD measured as Absorbance across the membrane in receiving tube (after 4 hr): 0.1283 | OD measured as Absorbance across the membrane in receiving tube (after 5 hr): 0.1370 | OD measured as Absorbance across the membrane in receiving tube (after 6 hr): 0.1595
